Yeast mating assay 1: variants of the scFv Ab-14

Antigen: PDVDLGDISGINAS, a 14-residue peptide of the SARS-CoV-2 spike HR2 region.

Each scFv is VH, a (GGGGS)3 linker, VL, as in the parent Ab-14, and differs from it in the CDRs of the light chain only.
VH: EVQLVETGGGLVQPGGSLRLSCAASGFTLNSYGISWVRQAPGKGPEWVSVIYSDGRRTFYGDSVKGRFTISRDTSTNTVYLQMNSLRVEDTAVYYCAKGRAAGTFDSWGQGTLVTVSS
VL: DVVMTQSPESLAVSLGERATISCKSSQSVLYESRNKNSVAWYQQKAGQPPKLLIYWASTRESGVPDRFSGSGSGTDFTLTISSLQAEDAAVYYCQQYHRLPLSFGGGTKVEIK

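The starting antibody came from a phage panning campaign against this peptide. AAYL50 was designed without a model: most single CDR substitutions and a random sample of double and triple ones. AlphaSeq pools MATa yeast showing the antibodies with MATalpha yeast showing the peptide. After mating in shaken culture at 30 °C for 16 h, diploids were selected and their barcode pairs sequenced. Read counts were normalised to the haploid input and turned into Kd by a linear fit to BCL2-family pairs of known affinity, for each replicate. There are three technical replicates.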

Variants are written as CDR1, CDR2 and CDR3 of the light chain (limits as in the source). Parent: KSSQSVLYESRNKNSVA, WASTRES, QQYHRLPLS. This list gathers variants with a substitution at S38 (VL, numbered from residue 1). Values are apparent Kd, the geometric mean of the replicates that gave a signal; lower means stronger binding. "nd" marks a missing value. The strain was present, yet no cells mated with the target were sequenced in any replicate, which points to weak or no binding. Nonspecific signal, from three strains lacking the peptide, appeared in 18% of pairings of library AAYL50, centred on 15 µM (5% of these signals below 970 nM); values are not corrected for it.

For KSSQSVLYESRNKPWVA, WASTRHS, QQYHRLPLS, the assay gave nd (0 of 3 replicates).
For KSSQSVLGESRNKNNVA, WASTRES, QQYHRLPLS, the assay gave 2.8 nM (3 of 3 replicates).
For KSSQDVLYESRNKNYVA, WASTRES, QQNHRLPLS, the assay gave 14 µM (3 of 3 replicates).
For KSSQSVVYESRNKNNVA, WASTREA, QQYHRLPLS, the assay gave 3.0 nM (3 of 3 replicates).
For KSSQSVLYESRNCNEVA, WASTRRS, QQYHRLPLS, the assay gave 850 nM (3 of 3 replicates).
For KSVQSVLYESRNKNEVA, WASTRES, QQYHRLGLS, the assay gave 420 nM (3 of 3 replicates).
For KSSQTVLYESRNKNEVA, WASTRES, RQYHRLPLS, the assay gave 900 nM (1 of 3 replicates).
For KSSQSVLYEYRNKNRVH, WASTRES, QQYHRLPLS, the assay gave nd (0 of 3 replicates).
For KSSQSVLYESRNKNRVA, WASTRES, QQYHRLPLS, the assay gave 3.6 µM (3 of 3 replicates).
For KSSQSSLYESRNKNPVA, WAVTRES, QQYHRLPLS, the assay gave 14 µM (1 of 3 replicates).
For KSSQSVLYESRNKNLNA, WASTRES, QQYHRLPLG, the assay gave nd (0 of 3 replicates).
For KSSQSNLYCSRNKNPVA, WASTRES, QQYHRLPLS, the assay gave nd (0 of 3 replicates).
For KSTQSVPYESRNKNDVA, WASTRES, QQYHRLPLS, the assay gave 180 nM (3 of 3 replicates).
For KSSQSVLYESRNINKVA, WASTREP, QQYHRLPLS, the assay gave 1.8 µM (3 of 3 replicates).
For KSSQSVLYESRDKNGVA, WASTRES, QQYHRKPLS, the assay gave nd (0 of 3 replicates).
For KSSQSVEYESPNKNGVA, WASTRES, QQYHRLPLS, the assay gave 20 nM (3 of 3 replicates).
For KSSDSVLYESRNKNGVA, WASTRHS, QQYHRLPLS, the assay gave 1.2 µM (3 of 3 replicates).
For KSSQSVYYESRNKNEVA, IASTRES, QQYHRLPLS, the assay gave 7.9 µM (1 of 3 replicates).
For KSSQSVLYESVNKNQVA, WASTRET, QQYHRLPLS, the assay gave 7.7 nM (3 of 3 replicates).
For KSSQSVLYESENKNEVA, WASTRES, QQYHRLPLS, the assay gave nd (0 of 3 replicates).
For KSSQSVRYESRNKNGVA, WFSTRES, QQYHRLPLS, the assay gave nd (0 of 3 replicates).
For KSSQSVLYESRNKNGVA, WASTRES, AQYSRLPLS, the assay gave 1.5 µM (2 of 3 replicates).
For KSSQSVLYESRNKNLLA, WASTRMS, QQYHRLPLS, the assay gave 250 nM (1 of 3 replicates).
For KSSQSVLYESRNKNFVA, WASTWEG, QQYHRLPLS, the assay gave nd (0 of 3 replicates).
For KSSQSVLYESRNKNAVA, WASTRES, QQLHRAPLS, the assay gave nd (0 of 3 replicates).
For KDSQSVLYESRNKNHVA, WASTRES, QQSHRLPLS, the assay gave 6.6 µM (2 of 3 replicates).
For KSSQSVLYEDRNKNPVA, WASTRES, QQYHRLPLS, the assay gave 22 nM (3 of 3 replicates).
For KSSQSVLYESRNKPAVA, WASMRES, QQYHRLPLS, the assay gave 6.8 nM (3 of 3 replicates).
For KSSQSVLYESRNSNLVN, WASTRES, QQYHRLPLS, the assay gave nd (0 of 3 replicates).
For KSSQSVLYESRNKNWVA, WASTGGS, QQYHRLPLS, the assay gave 18 µM (2 of 3 replicates).
For KSSQSVPYESRNINQVA, WASTRES, QQYHRLPLS, the assay gave 110 nM (3 of 3 replicates).
For KSSQSVLYESRNKNGVA, WASTRES, QQYHRLPLS, the assay gave 53 nM (3 of 3 replicates).
For KSSQSVLYFSRNKNVVA, WASTRES, GQYHRLPLS, the assay gave nd (0 of 3 replicates).

Again, the first 5 entries without any signal:

KSSQSVLYESRNKPWVA, WASTRHS, QQYHRLPLS: nd (0 of 3 replicates).
KSSQSVLYEYRNKNRVH, WASTRES, QQYHRLPLS: nd (0 of 3 replicates).
KSSQSVLYESRNKNLNA, WASTRES, QQYHRLPLG: nd (0 of 3 replicates).
KSSQSNLYCSRNKNPVA, WASTRES, QQYHRLPLS: nd (0 of 3 replicates).
KSSQSVLYESRDKNGVA, WASTRES, QQYHRKPLS: nd (0 of 3 replicates).

From the AlphaSeq antibody data of Engelhart et al. 2022 (doi:10.1038/s41597-022-01779-4), copy in the FLAb collection.